# Screening results (PubChem)
# Yeast UUG start: alters start codon recognition fidelity in yeast. S. cerevisiae UUG-firefly luciferase reporter, luminescence/redox ratio. AID 602363. activity score, % at 18.7 µM. hit rate 0.13% among 350,000;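 active = replicate mean at a twofold rise or more, about +100% in these data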;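 note: firefly luciferase made from a UUG start codon reports start codon fidelity; reporter light over untreated wells divided by growth signal over untreated wells; some hits fall short of that in this replicate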
# Wnt bcat act: Wnt/beta-catenin pathway activators, primary screen, cell-based, plate reader, single point | AID 743398, 2014 | activation, % at 9.35 µM | Wnt/beta-catenin reporter cell assay, activator | actives 1.2% (n = 300,000); in the data active = activation above about 30%, passing the limit was not always enough; inconclusive = no clear call, values can overlap the other calls;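 also: 0% = neutral control wells and 100% = positive control wells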
# esBAF inh: Bmi1 luciferase reporter increase in mESCs, primary screen, esBAF inhibitor project, mouse ES cells, Bmi1 luciferase knock-in, single point. reporter increase, % at 12.5 µM. 24 h; 100% = twice the neutral-well signal. actives 2% (n = 350,000); in the data active = activation above about 40%; inconclusive = no clear call, values can overlap the other calls;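 also: 0% = median of the plate's neutral control wells and 100% = double that signal; a rise in the Bmi1 reporter signal indicates esBAF inhibition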
# MITF TRPM1 HTS: activators of MITF-driven TRPM1 promoter reporter, primary screen, cell-based, SK-MEL-5, luciferase, single point. SK-MEL-5 TRPM1-promoter luciferase, 24 h; % of positive control, neutral wells = 0. actives 0.75% (n = 300,000). activation, % at 12.5 µM;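 active = mean activation of at least 80% with every replicate also reaching 80%; inconclusive = mean reaches 80% but some replicate falls short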;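 also: 0% = neutral control wells and 100% = parthenolide positive control wells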
# PglD DTNB: C. jejuni PglD acetyltransferase inhibitors, primary screen, biochemical, DTNB colorimetric, single point. inhibition, % at 12.5 µM. actives 0.098% (n = 360,000). AID 602405, 2012. purified PglD enzyme, DTNB colorimetric CoA detection. UDP-N-acetylbacillosamine N-acetyltransferase PglD (Campylobacter jejuni); in the data active = inhibition above about 16%, passing the limit was not always enough; inconclusive = no clear call, values can overlap the other calls
# miR122 inh: miR-122 Renilla sensor signal increase in Huh7, primary screen, miR-122 inhibitor project, cell-based, single point, plate reader. activation (reporter increase), % at 12.5 µM. AID 602342, 2012. actives 0.3% (n = 340,000). Huh7 miR-122 Renilla luciferase sensor, 48 h; neutral wells = 0, positive control = 100;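 active = mean replicate activation score at least 90 and every replicate individually at or above 90; inconclusive = only one of the two criteria met; inactive = neither criterion met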;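 also: higher luciferase means less miR-122 activity so hits act as miR-122 inhibitors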
# * hit, by the source's call; u = inconclusive; x = no result; [ ] = another dose, or the depositor's remark. An excerpt weighted towards active compounds, which were near 2.8% of everything screened.
SMILES,Yeast UUG start,Wnt bcat act,esBAF inh,MITF TRPM1 HTS,PglD DTNB,miR122 inh
COc1ccc(NC(=S)NC(=O)c2ccccc2Cl)cc1,-11,x,62*,u,-2,-2
COc1ccc(NC(=O)c2cc(-c3ccccc3Cl)no2)cc1,-14,x,x,24,8,-4
O=C(NC(=S)Nc1ccc(O)cc1)c1ccccc1Cl,-28,-2,u,35,-3,-4
COc1ccc(NC(=O)c2ccc(-c3ccccc3Cl)o2)cc1,-6,24,30,116*,-1,-6
O=C(Nc1ccccc1)c1cc(-c2ccccc2Cl)no1,-26,27,56*,56,-2,-4
CC(C)CC#Cc1ccc2c(c1)O[C@@H](CN(C)C(=O)Cc1ccncc1)[C@H](C)CN([C@@H](C)CO)S2(=O)=O,-8,x,2,x,-1,8[16.7 µM]
O=C(C[C@@H]1C[C@@H]2c3cc(NC(=O)CC4CC4)ccc3O[C@@H]2[C@H](CO)O1)NCc1ccccn1,-24,x,4,x,-2,-9[16.7 µM]
O=C(C1CCCC1)N1C[C@H]2[C@@H](c3ccccc31)[C@H](CO)N2C(=O)c1ccccc1F,3,x,-1,x,0,-10[16.7 µM]
CCc1nnc(NC(=O)c2ccc(COc3ccccc3Cl)o2)s1,-12,0,-5,x,3,0
COC(=O)c1sccc1-c1ccc(C(=O)Nc2ccccc2)o1,0,x,74*,76,-88,2

# Three structures already listed, sorted by molecular weight, descending.
SMILES,Yeast UUG start,Wnt bcat act,esBAF inh,MITF TRPM1 HTS,PglD DTNB,miR122 inh
O=C(C[C@@H]1C[C@@H]2c3cc(NC(=O)CC4CC4)ccc3O[C@@H]2[C@H](CO)O1)NCc1ccccn1,-24,x,4,x,-2,-9[16.7 µM]
O=C(C1CCCC1)N1C[C@H]2[C@@H](c3ccccc31)[C@H](CO)N2C(=O)c1ccccc1F,3,x,-1,x,0,-10[16.7 µM]
O=C(NC(=S)Nc1ccc(O)cc1)c1ccccc1Cl,-28,-2,u,35,-3,-4

# In the list so far, these contain nitrogen in an aromatic ring.
SMILES,Yeast UUG start,Wnt bcat act,esBAF inh,MITF TRPM1 HTS,PglD DTNB,miR122 inh
COc1ccc(NC(=O)c2cc(-c3ccccc3Cl)no2)cc1,-14,x,x,24,8,-4
O=C(Nc1ccccc1)c1cc(-c2ccccc2Cl)no1,-26,27,56*,56,-2,-4
CC(C)CC#Cc1ccc2c(c1)O[C@@H](CN(C)C(=O)Cc1ccncc1)[C@H](C)CN([C@@H](C)CO)S2(=O)=O,-8,x,2,x,-1,8[16.7 µM]
O=C(C[C@@H]1C[C@@H]2c3cc(NC(=O)CC4CC4)ccc3O[C@@H]2[C@H](CO)O1)NCc1ccccn1,-24,x,4,x,-2,-9[16.7 µM]
CCc1nnc(NC(=O)c2ccc(COc3ccccc3Cl)o2)s1,-12,0,-5,x,3,0

# (list continues)
SMILES,Yeast UUG start,Wnt bcat act,esBAF inh,MITF TRPM1 HTS,PglD DTNB,miR122 inh
CCc1nnc(NC(=O)c2ccc(-c3ccccc3Cl)o2)s1,-13,x,53*,x,9,2
CCOC(=O)CN(C(=O)CSc1nnc(-c2ccncc2)n1CCCN(C)C)c1ccccc1,x,36*,x,x,x,x
Cc1nn(C)c(C)c1C(C)NC(=O)c1cc(COc2ccc(F)c(F)c2)on1 (stereo unspecified),-20,1,51*,56,0,-2
COC(=O)Cc1csc(Nc2ccccc2Cl)n1,-7,17,54*,94*,-6,-2
CCOC(=O)c1sc(NC(=O)c2cncc(Br)c2)nc1C,x,22,x,x,x,x
CCOC(=O)c1sc(NC(=O)c2ccc3ncsc3c2)nc1C,-15,14,51*,x,1,-2
CCc1ccc(C(=O)Nc2cc(C)ccc2F)s1,5,11,66*,17,-8,-4
CCOC(=O)c1sc(NC(=O)c2ccc(CC)s2)nc1C,-6,x,51*,31,-2,4
CN1CCN(C(=O)C2=C[C@H](c3ccccc3)C[C@H](OCCCCO)O2)CC1,9,x,x,x,4,x
CCCC(=O)Nc1ccc2c(c1)C(=O)N(C)C[C@H](OC)[C@H](C)CN(Cc1ccccc1)[C@H](C)CO2,4,x,-13,x,-1,24[16.7 µM]
CCOC(=O)c1sc(Nc2ccccc2Cl)nc1C,85,39*,65*,49,4,3
Cc1ccc(NC(=O)c2ccc3nc[nH]c3c2)c(O)c1,-22,7,51*,27,-1,5
Cc1ccc(NC(=O)c2ccc3nc[nH]c3c2)nc1,-29,26,x,28,1,14
CC(C)OC(=O)CSc1nc2cc3c(cc2cc1C#N)OCO3,-17,x,59*,x,0,3
COC(=O)CSc1nc2cc3c(cc2cc1C#N)OCO3,x,x,x,79,x,-5
CCOC(=O)CSc1nc2cc3c(cc2cc1C#N)OCO3,4,x,x,90*,2,-1
CCOC(=O)CSc1nc2cc3c(cc2cc1C#N)OCCO3,x,8,x,61,x,-1
N#Cc1cc2cc3c(cc2nc1SCC(=O)N1CCOCC1)OCO3,-6,u,52*,x,2,-1
C[C@H]1CN([C@@H](C)CO)C(=O)Cc2cc(NC(=O)Nc3ccc(F)cc3)ccc2O[C@H]1CN(C)C(=O)NC1CCCCC1,-3,x,3,x,2,-3[16.7 µM]
O=C(CCCn1c(=O)oc2ccccc21)Nc1ccccc1,-8,5,51*,50,-1,5
O=C(CCn1c(=O)oc2ccccc21)Nc1ccc2c(c1)OCCO2,-12,23,57*,41,2,-3
COc1ccc(NC(=O)CCCn2c(=O)oc3ccccc32)cc1Cl,x,17,x,154*,x,x
O=C(CCn1c(=O)oc2ccccc21)N1CCc2ccccc21,-10,-4,41*,47,6,1
CCc1ccc(NC(=O)CCCOc2cc(=O)n(C)c3ccccc23)cc1,-21,-3,4,x,-1,-3
Cn1c(=O)cc(OCCCC(=O)Nc2ccc3c(c2)OCCO3)c2ccccc21,14,64*,1,-2,-2,2
Cc1ccc(Cc2c(-c3ccc(Br)cc3)nc3cc(C)ccn23)cc1,26,13,u,x,4,-1
Cc1ccc(Cc2c(-c3ccc(F)cc3)nc3cc(C)ccn23)cc1,51,16,44*,x,1,5
O=C(CCc1nnc(C2CCCCC2)o1)N1CCN(c2ccccc2F)CC1,x,33*,x,74,x,x
CCNC(=O)C[C@H]1CC[C@@H]2[C@H](COC[C@H](O)CN2C(=O)Nc2ccc3c(c2)OCO3)O1,2,x,45*,x,3,8[16.7 µM]
CCNC(=O)C[C@@H]1CC[C@@H]2[C@H](COC[C@H](O)CN2C(=O)Nc2ccc3c(c2)OCO3)O1,-13,x,44*,x,-1,4[16.7 µM]
CCCNC(=O)C[C@@H]1CC[C@@H]2[C@H](COC[C@@H](O)CN2C(=O)Nc2ccc3c(c2)OCO3)O1,-14,x,8,x,3,-4[16.7 µM]
CCCNC(=O)C[C@H]1CC[C@H]2[C@@H](COC[C@H](O)CN2C(=O)Nc2ccc3c(c2)OCO3)O1,4,x,14,x,2,-4[16.7 µM]
O=C(C[C@@H]1CC[C@H]2[C@@H](COC[C@H](O)CN2C(=O)Nc2cccc(F)c2)O1)NCc1ccccc1F,28,x,8,x,19*,45[16.7 µM]
COc1ccc(NC(=O)N[C@H]2CC[C@H](CCNS(=O)(=O)c3ccccc3F)O[C@H]2CO)cc1,13,x,0,x,2,x
CCCCCCCSc1ncnc2[nH]ncc12,-4,3,70*,24,2,5
CSc1ncnc2[nH]ncc12,x,6,3,7,x,-2
O=C(N/N=C/c1ccc(Br)s1)c1ccco1,x,43*,x,u,x,x
Cc1ccc(/C=N/NC(=O)c2ccco2)s1,-11,45*,13,44,2,-1
Cc1ccc(/C=N/NC(=O)c2c[nH]c3ccccc23)s1,-17,x,59*,69,-3,x
Cc1ccc(/C=N/NC(=O)c2ccc(C(=O)N/N=C/c3ccc(C)s3)o2)s1,-17,-3,11,20,-10,10
C[C@@H]1CCCCO[C@@H](CN(C)C)[C@H](C)CN([C@@H](C)CO)C(=O)c2cc(NC(=O)Nc3cccc4ccccc34)ccc2O1,7,x,-4,x,0,1[16.7 µM]
